Experimental data as given in publication PMC8165606, “Effects of Natural Monoamine Oxidase Inhibitors on Anxiety-Like Behavior in Zebrafish” (Frontiers in Pharmacology, 2021).

Amino acid sequences for entries named in this document (tags omitted).
UniProt P21397, whole entry, species assumed: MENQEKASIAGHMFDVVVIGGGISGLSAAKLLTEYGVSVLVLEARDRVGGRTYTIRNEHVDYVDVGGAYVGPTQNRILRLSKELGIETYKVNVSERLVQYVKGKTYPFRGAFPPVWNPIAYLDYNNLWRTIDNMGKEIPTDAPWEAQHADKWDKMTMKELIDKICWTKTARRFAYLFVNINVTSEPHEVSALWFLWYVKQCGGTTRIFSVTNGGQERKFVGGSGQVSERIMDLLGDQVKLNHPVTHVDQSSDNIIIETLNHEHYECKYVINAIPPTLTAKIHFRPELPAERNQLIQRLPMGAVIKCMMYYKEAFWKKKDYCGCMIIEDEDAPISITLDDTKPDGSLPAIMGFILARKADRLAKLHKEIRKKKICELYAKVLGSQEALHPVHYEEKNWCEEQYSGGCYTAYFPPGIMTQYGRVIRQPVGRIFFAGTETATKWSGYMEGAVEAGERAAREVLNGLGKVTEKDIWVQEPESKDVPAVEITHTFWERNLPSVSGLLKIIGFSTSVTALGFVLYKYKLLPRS
UniProt P27338, whole entry, species assumed: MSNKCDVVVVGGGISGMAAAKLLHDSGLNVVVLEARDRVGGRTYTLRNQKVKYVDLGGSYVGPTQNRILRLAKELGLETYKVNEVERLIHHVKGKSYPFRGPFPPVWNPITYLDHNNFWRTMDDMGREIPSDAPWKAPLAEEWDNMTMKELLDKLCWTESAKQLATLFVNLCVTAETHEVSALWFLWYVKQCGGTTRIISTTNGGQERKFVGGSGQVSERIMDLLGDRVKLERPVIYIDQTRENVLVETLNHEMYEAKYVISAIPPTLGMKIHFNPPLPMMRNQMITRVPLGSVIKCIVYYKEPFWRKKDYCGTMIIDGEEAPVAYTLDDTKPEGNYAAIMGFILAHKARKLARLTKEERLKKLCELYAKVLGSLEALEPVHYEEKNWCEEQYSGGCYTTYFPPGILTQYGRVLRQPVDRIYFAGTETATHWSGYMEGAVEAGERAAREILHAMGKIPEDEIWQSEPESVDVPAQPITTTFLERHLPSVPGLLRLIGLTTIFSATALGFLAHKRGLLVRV

How the values were obtained:
[1] = target: T1, MAO A (Homo sapiens, UniProt P21397); experiment: MAO-Glo two-step bioluminescent assay, MAO A; assay type: biochemical; details: for IC50: substrate 20 µM
[2] = target: T1, MAO A; details: direct assay without substrate preincubation ref Fowler et al., 1982, Ramsay et al., 2020, cited from earlier work
[3] = target: MAO B (Homo sapiens, UniProt P27338); experiment: MAO-Glo two-step bioluminescent assay, MAO B; assay type: biochemical
[4] = test system: zebrafish brain; experiment: Ex vivo bioavailability assay in fish brain (UPLC-HRMS or GC/MS); details: relative brain level per 1 mg/L

Compound	IC50 ([1]; mean ± SEM, read-out: MAO a IC50)	Ki [1]	IC50 ([1]; MAO a IC50, mean ± SEM)	Difference between Ki values of MAO A and MAO B [2]	Ki ([2]; read-out: Ki MAO A)	IC50 [3]	Brain level relative to the rest of compounds tested [4]	MAO-A potency, fold less potent than harmane ([1]; from MAO-A IC50)	Selectivity between MAO A and B ([1]; present study)
c1ccc2c(c1)[nH]c1cnccc12 [Norharmane, norharmane]	1.05 ± 0.36 µM	–	–	–	–	–	–	–	–
C#CCN(C)Cc1ccccc1 [Pargyline, pargyline hydrochloride]	–	0.85 µM	1.84 ± 0.79 µM	8 fold	15 µM	–	–	–	–
c1ccc2c(c1)CCNC2 [TIQ, 1,2,3,4-tetrahydroisoquinoline]	–	–	20.9 µM and 33 µM	–	–	50.2 ± 9.99 µM	approximately 10 fold	400 fold	no selectivity

Values joined by “and” are separate entries in the source; they are usually repeats but may differ in a detail not shown here. Identical values can stand only once. Counter-ions that a name gives are not always drawn. Like-named read-outs stand apart in the source and are kept apart here.
